The list shows a part of the results, in another mix than the full data. Active and inactive are the calls of the source.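 Rule for the calls: active = Z score or B-score, a plate-position-corrected score, falls beyond the plate's 99.7% confidence bounds, in either direction; inactive = both scores lie inside the 99.7% bounds.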

Sequences of proteins named here, by UniProt entry; tags and fusion partners are left off.
UniProt Q01959, whole entry, looked up: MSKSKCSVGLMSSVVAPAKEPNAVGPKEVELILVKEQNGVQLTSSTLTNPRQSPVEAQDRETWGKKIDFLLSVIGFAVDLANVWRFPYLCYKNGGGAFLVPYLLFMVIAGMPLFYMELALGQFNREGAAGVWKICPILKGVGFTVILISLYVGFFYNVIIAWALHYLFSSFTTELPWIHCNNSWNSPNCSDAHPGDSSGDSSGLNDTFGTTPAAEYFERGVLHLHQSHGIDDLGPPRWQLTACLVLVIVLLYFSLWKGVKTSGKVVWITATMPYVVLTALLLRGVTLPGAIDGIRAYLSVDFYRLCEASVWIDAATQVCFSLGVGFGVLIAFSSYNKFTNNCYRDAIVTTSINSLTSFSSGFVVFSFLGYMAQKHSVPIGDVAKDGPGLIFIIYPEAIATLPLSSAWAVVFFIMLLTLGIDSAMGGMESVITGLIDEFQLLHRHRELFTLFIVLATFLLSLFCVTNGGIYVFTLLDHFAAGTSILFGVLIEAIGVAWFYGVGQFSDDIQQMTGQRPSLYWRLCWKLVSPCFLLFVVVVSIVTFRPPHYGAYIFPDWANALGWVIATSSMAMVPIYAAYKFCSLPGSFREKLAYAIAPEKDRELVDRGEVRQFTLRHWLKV

The target in this assay is Sodium-dependent dopamine transporter (Homo sapiens) (UniProt Q01959). Nature of the assay: changed hDAT dopamine uptake under cocaine IC80, either direction, primary screen, cocaine antagonist project, cell-based, LLC-PK1 hDAT, [14C]-dopamine uptake, MLSMR (AID 449768).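 Note: scored against the spread of the other compound wells on the same plate.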 As to conditions: LLC-PK1 hDAT cells, [14C]-dopamine uptake with cocaine IC80; at 10 µM; actives deviate in either direction.
`O=P1(Nc2ncccn2)COc2ccccc2OC1`: the B-score is inactive: 0.249. For the compound `Cc1ccc(OCC(=O)OC2CN3CCC2CC3)cc1` (stereo not given), the B-score was inactive: 0.455. Take `O=P1(Nc2ccc(Br)cn2)COc2ccccc2OC1`: the B-score was inactive: -1.12. On to `Cc1nn(-c2ccccc2)c2c1P(=O)(N1CCOCC1)N(C)C(c1ccccc1)=N2` (stereo not given), for which the B-score was inactive: -0.515.

For the compound `CC1(CBr)Cn2c(nc3ccccc3c2=O)S1` (stereo not given), the B-score is inactive: 0.886. With `CN(C(=O)Cc1ccc(Cl)c(Cl)c1)[C@@H]1CCCC[C@H]1N1CCCC1`, the B-score was inactive: -0.253.

For `CN(CCCl)Cc1cc(Cl)c(NC2=NCCN2)c(Cl)c1`, the B-score is inactive: 0.00169.

For `O=P1(Nc2ccccn2)COc2ccccc2OC1`, the B-score is inactive: -1.2. For `Clc1n[nH]nc1-c1nn[nH][15n]1`, the B-score was inactive: -1.51.

As to `Cc1cccc(OCC(=O)OC2CN3CCC2CC3)c1` (stereo not given), the B-score is inactive: 0.315. In the case of `NC(=O)Nc1ccc([As](=O)(O)O)cc1` it was inactive: -1.22; in that of `CN(C(=O)Cc1ccc(Cl)c(Cl)c1)[C@H]1CC[C@@]2(CCCO2)C[C@@H]1N1CCCC1`, inactive: 0.0959; in that of `O=[N+]([O-])c1ccc2c(c1)nnn2O`, inactive: -1.22. Take `CCOP1(=S)c2c(C)nn(CCC#N)c2N=C(c2ccc(F)cc2)N1C` (stereo not given): the B-score is inactive: 0.0242. In the case of `CN(C(=O)Cc1ccccc1)[C@@H]1CC[C@]2(CCCO2)C[C@H]1N1CCCC1` it was inactive: 0.0851.

As for `O=P(Nc1nccs1)(c1ccccc1)c1nc2ccccc2s1` (stereo not given), the B-score is inactive: 0.372. With `CCOP1(=S)c2c(C)nn(CCC#N)c2N=C(c2ccccc2F)N1C` (stereo not given), the B-score was inactive: 0.208. In the case of `ClCCSc1nnc(-c2cccnc2)o1` it was inactive: 1.87. Take `CCN(CC)C(=S)SC(NC=O)C(Cl)(Cl)Cl` (stereo not given): the B-score is inactive: 0.866. With `CC(Cc1ccc(O)cc1)NCC(O)c1cc(O)cc(O)c1` (stereo not given) the figure was inactive: -0.54. For the compound `O=C(OC1CN2CCC1CC2)C12CC3CC(CC(C3)C1)C2` (stereo not given), the B-score was inactive: -0.00467. With `CCC(C)N(CC(C)C)C(=S)SC(NC(C)=O)C(Cl)(Cl)Cl` (stereo not given) the figure was inactive: -0.0708.

Turning to `COP1(=S)c2c(C)nn(CCC#N)c2N=C(c2ccc(F)cc2)N1C` (stereo not given), the B-score was inactive: -0.648. On to `O=C(COc1ccccc1)OC1CN2CCC1CC2` (stereo not given), for which the B-score is inactive: 0.199.

`CC1CCN(C(=O)Oc2c(Cl)cc(Cl)c3cccnc23)CC1`: the B-score is inactive: 0.0843. For the compound `CC(=O)N1C2C3N(C(C)=O)C1C1N(C(C)=O)C(C(N1C(C)=O)N3C(C)=O)N2C(C)=O`, the B-score is inactive: -2. In the case of `O=[N+]([O-])c1cccc2n[nH]nc12` it was inactive: -0.565; in that of `CCc1nc2c(n1)c1c(non1O)c1c2no[n+]1[O-]`, inactive: -0.413. For `CC(C)CC(=O)NC(Sc1ccc(Cl)cc1)C(Cl)(Cl)Cl` (stereo not given), the B-score was inactive: -0.595.

For `Cc1c2non([O-])c-2c(C)[n+](=O)[n+]1[O-]`, the B-score is inactive: -1.42.

As for `Oc1ccccc1CNc1ccccn1`, the B-score is inactive: -0.0311. Turning to `CN1CCCC(OC(=O)C(c2ccccc2)c2ccccc2)C1` (stereo not given), the B-score is inactive: -0.616.

`CN(C(=O)Cc1ccc(Cl)c(Cl)c1)[C@H]1CCCC[C@@H]1N1CCCC1`: the B-score was inactive: 0.593.

Take `CCOP(=O)(Nc1ccccc1)OCC`: the B-score was inactive: 0.00983. Turning to `COC(=O)c1cc2c(s1)N=C(c1ccccc1)N(C)P2(=O)N1CCOCC1` (stereo not given), the B-score is inactive: 0.891. For the compound `CCC(=O)N1C2C3N(C(=O)CC)C1C1N(C(=O)CC)C(C(N1C(=O)CC)N3C(=O)CC)N2C(=O)CC`, the B-score was inactive: -0.514. Consider `CCOC(=O)NC(Sc1ccccc1)C(Cl)(Cl)Cl` (stereo not given), for which the B-score is inactive: 0.289. With `C[C@H]1OP(=O)(Oc2ccccc2)C[C@@H]2O[C@@H]21` (stereo not given in full) the figure was inactive: -0.00917. With `C[C@@H]1C=CCP(=O)(Oc2ccccc2)O1` (stereo not given in full) the figure was inactive: -0.123. For `O=P1(Nc2nc3ccc(Cl)cc3s2)COc2ccccc2O1` (stereo not given), the B-score is inactive: -0.948. With `COc1ccc(C[C@H](C)NC[C@@H](O)c2ccc(O)c(NC=O)c2)cc1` the figure was inactive: 0.691; with `O=P(Nc1nccs1)(c1ccccc1)c1ccccc1`, inactive: -0.479; with `c1nnnn1CCn1cnnn1`, inactive: 0.429. For the compound `O=C(OC1CN2CCC1CC2)c1cccc(Cl)c1` (stereo not given), the B-score is inactive: 0.00604. For the compound `C[C@H]1OP(=O)(Oc2ccccc2)[C@H](O)[C@H](O)[C@H]1N=[N+]=[N-]` (stereo not given in full), the B-score was inactive: -0.255.

The values are drawn from PubChem BioAssay AID449768 (Vanderbilt High Throughput Screening Facility, 2010).
